This note sets out measurements from patent US7029878B2, “Melanin concentrating hormone receptor chimeric and fusion proteins” (Merck & Co., Inc., priority 2000, dated 2006).

Holding throughout (assay type): cell-based
Test [1] has as its target T1, Mouse MCH1R-1-EGFP (mouse MCH1R-linker-EGFP) (Mus musculus, UniProt Q8JZL2).
T1 construct: ID; NO; 11 (mouse MCH1R-linker-EGFP); 12 amino acid linker […]; expressed in transfected cells; host or cells: CHO (transient) and HEK293 Aequorin (transient)
Briefly: cAMP production (FlashPlate), transiently transfected CHO cells stimulated with human MCH. The settings on record: transient CHO, Table 1. Here is the method: (§1) Both HEK293 Aequorin (National Institutes of Health) and CHO mammalian cell lines were transiently transfected with the various MCH1R/GFP variant fusion constructs, as well as the appropriate control constructs. Transfection was performed using Lipofectamine 2000 (Gibco BRL) per the manufacturer recommended protocol. Approximately 48 hours after transfection cells were harvested, stimulated with various concentrations of human MCH, and assayed for either aequorin bioluminescence (HEK293 Aequorin cells) or cAMP production (CHO cells). Aequorin bioluminescence is a representative measure of intracellular Ca^2+ mobilization. cAMP production was measured with the Adenylyl Cyclase Activation FlashPlate Assay (NEN Life Science Products, Inc.).
(cAMP levels reflect the balance of adenylyl cyclase and phosphodiesterase activity.)

Test [2] addresses T2, Mouse MCH1R/EGFP direct fusion (Mus musculus, UniProt Q8JZL2).
T2 construct: ID; NO; 12 (mouse MCH1R/EGFP direct fusion); expressed in transfected cells; host or cells: CHO (transient)
Described as above. The settings on record: transient CHO, Table 1. How it is done:
as §1

For test [3], the target named is T3, mMCH1R-1-EGFP (Mus musculus, UniProt Q8JZL2).
T3 construct: ID; NO; 11 (mouse MCH1R-linker-EGFP); 12 amino acid linker […]; expressed in transfected cells; host or cells: CHO (transient) and HEK293 Aequorin (transient)
Kind of test: aequorin bioluminescence, transiently transfected HEK293 Aequorin cells stimulated with human MCH. The note with it: transient HEK293 Aequorin, FIG. 1. Here is the method: FIG. 1 illustrates aequorin assay results comparing a mouse MCH-R fusion with a human wild type MCH-R and a CMV-EGFP control.
as §1

For the substance human MCH, the EC50 in test [1] was 3.2 nM; in test [2], 0.819 nM. In addition, the “EC50 compared with wild-type human short form receptor” value in test [3] is on record as “nearly identical to that of the wild-type human short form receptor”.

The EC50 is the concentration that produces a half-maximal response.
